For this test, the target named is T1, ECE-1 (Bos taurus, UniProt P42891).
T1 construct: The entire coding regions from bovine ECE-1; made in house
T1 sequence (P42891 with tags, fused parts or gaps A87G/A695G limits assumed): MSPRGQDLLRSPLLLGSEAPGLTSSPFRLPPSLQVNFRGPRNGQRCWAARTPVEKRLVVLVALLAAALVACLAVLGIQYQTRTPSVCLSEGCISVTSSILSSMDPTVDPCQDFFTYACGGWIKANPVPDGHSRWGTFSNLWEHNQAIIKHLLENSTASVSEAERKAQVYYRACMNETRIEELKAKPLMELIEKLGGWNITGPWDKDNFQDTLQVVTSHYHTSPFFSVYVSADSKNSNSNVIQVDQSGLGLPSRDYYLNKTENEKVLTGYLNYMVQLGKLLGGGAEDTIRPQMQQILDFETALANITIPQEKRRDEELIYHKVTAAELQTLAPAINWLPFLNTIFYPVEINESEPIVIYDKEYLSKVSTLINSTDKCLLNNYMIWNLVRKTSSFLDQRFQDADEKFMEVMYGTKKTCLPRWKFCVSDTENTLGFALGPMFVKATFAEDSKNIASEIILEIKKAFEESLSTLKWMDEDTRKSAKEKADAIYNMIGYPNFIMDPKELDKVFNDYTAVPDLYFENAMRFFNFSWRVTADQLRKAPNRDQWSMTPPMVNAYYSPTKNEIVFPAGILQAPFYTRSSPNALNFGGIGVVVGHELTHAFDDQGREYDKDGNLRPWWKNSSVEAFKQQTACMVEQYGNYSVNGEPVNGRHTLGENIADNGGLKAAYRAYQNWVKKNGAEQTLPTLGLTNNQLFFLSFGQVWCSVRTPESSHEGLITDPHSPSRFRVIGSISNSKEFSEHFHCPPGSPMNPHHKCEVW
Nature of the test: ECE activity in solubilized CHO/ECE-1 membranes/homogenates, protease inhibitors (generation of mature ET-1 from big ET-1 by EIA). The class given is biochemical, bovine. Conditions: read-out: ECE activity (% of ECE activity without inhibitors); inhibitor 100 μM; means of duplicate assays from two independent experiments.

Amino acid sequences for entries named in this document (tags omitted). A change or cut given only in a name is not applied to a line headed by its entry.
UniProt P42891: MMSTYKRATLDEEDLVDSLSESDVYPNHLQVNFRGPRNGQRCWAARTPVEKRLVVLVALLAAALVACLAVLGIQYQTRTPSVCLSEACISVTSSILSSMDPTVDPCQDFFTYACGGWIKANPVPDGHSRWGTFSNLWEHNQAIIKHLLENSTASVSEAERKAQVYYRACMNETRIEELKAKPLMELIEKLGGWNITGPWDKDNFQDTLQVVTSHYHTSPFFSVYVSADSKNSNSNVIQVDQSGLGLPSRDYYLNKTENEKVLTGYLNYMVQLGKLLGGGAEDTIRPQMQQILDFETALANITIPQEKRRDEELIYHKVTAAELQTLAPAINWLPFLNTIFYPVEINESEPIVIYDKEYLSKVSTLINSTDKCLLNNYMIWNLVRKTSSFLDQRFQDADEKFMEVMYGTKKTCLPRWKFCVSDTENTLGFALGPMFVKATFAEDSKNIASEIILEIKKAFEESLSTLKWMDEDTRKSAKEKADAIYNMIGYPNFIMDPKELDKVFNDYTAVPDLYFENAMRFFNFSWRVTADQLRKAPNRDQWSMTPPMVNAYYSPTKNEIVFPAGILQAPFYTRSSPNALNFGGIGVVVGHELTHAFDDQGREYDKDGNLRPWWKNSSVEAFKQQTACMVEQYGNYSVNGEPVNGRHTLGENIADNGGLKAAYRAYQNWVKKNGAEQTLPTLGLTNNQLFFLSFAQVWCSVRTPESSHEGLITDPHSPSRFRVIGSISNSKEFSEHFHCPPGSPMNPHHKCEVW

As to `CC(C)C[C@H](NP(=O)(O)O[C@@H]1O[C@@H](C)[C@H](O)[C@@H](O)[C@H]1O)C(=O)N[C@@H](Cc1c[nH]c2ccccc12)C(=O)O` [Phosphoramidon], the remaining ECE activity (% of control) at 100 µM was found to be 6%.

The record behind these values is patent US5688640A, “Methods of screening of effectors of endothelin converting enzyme-1” (Board of Regents, The University of Texas System, priority 1994, dated 1997).
